Test results: patent US20150148311A1, “NON-SYSTEMIC TGR5 AGONISTS” (Ardelyx, Inc., priority 2011, published 2015)

How the values were obtained:
total GLP-1 = assay: In vivo GLP-1 secretion, plasma total GLP-1 8 h post dose; details: Mus musculus, C57BL/6 male mice, food removed, plasma total GLP-1 eight hours after dosing, read-out: GLP-1 fold change over vehicle, Mean
C57BL/6 male mice = assay: In vivo gallbladder measurement (weight) 8 h post dose; details: 30 mg/kg; for Gallbladder weight/body weight fold change over vehicle, Significance: 8 h, vs. vehicle, one-way ANOVA, Dunnett's test; for Gallbladder weight/body weight fold change over vehicle, Mean: food removed, eight hours after dosing
[1] = Compound plasma concentration, LC-MS/MS, 8 h post dose; format: in vivo; details: male, C57BL/6, mouse, mice, 30 mg/kg, read-out: Mean Example Plasma Concentration

Row | Compound | response vs control in vivo at 30 mg/kg (total GLP-1) [%] | Gallbladder weight/body weight fold change over vehicle, Significance (C57BL/6 male mice) | Gallbladder weight/body weight fold change over vehicle, Mean (C57BL/6 male mice) [fold change over vehicle] | concentration at 8 h [1] [ng/mL]
1 | O=C(NCCCCCc1cc(Cl)c(CN2CSC[C@H]2C(=O)N2CCN(C3CC3)c3ccccc32)cc1Cl)NCP(=O)(O)O [Example 283] | 130 | * (* p < 0.05 vs. vehicle; One-way ANOVA followed by Dunnett's test) | 1.3 | –
2 | O=C(O)CNC(=O)CNC(=O)CNC(=O)CCCCc1cc(Cl)c(CN2CSC[C@H]2C(=O)N2CCN(C3CC3)c3ccccc32)cc1Cl [Example 228] | 160 | * (* p < 0.05 vs. vehicle; One-way ANOVA followed by Dunnett's test) | 1.5 | –
3 | O=C(O)CNC(=O)[C@H](CSSC[C@H](NC(=O)CC[C@H](NC(=O)CCCCc1cc(Cl)c(CN2CSC[C@H]2C(=O)N2CCN(C3CC3)c3ccccc32)cc1Cl)C(=O)O)C(=O)NCC(=O)O)NC(=O)CC[C@H](NC(=O)CCCCc1cc(Cl)c(CN2CSC[C@H]2C(=O)N2CCN(C3CC3)c3ccccc32)cc1Cl)C(=O)O [Example 241] | 110 | n.s. | 1.2 | –
4 | O=C(O)CC[C@H](NC(=O)CCCCc1cc(Cl)c(CN2CSC[C@H]2C(=O)N2CCN(C3CC3)c3ccccc32)cc1Cl)C(=O)O [Example 279] | – | – | – | 2
5 | C[C@@H](NC(=O)[C@@H](C)NC(=O)[C@@H](C)NC(=O)CCCCc1cc(Cl)c(CN2CSC[C@H]2C(=O)N2CCN(C3CC3)c3ccccc32)cc1Cl)C(=O)O [Example 227] | 190 | * (* p < 0.05 vs. vehicle; One-way ANOVA followed by Dunnett's test) | 1.4 | –
6 | CN(C[C@H](O)[C@@H](O)[C@H](O)[C@H](O)CO)C(=O)CC[C@H](NC(=O)CCCCc1cc(Cl)c(CN2CSC[C@H]2C(=O)N2CCN(C3CC3)c3ccccc32)cc1Cl)C(=O)O [Example 278] | 140 | * (* p < 0.05 vs. vehicle; One-way ANOVA followed by Dunnett's test) | 1.3 | –
7 | O=C(NCCCCCc1cc(Cl)c(CN2CSC[C@H]2C(=O)N2CCN(C3CC3)c3ccccc32)cc1Cl)N1CCN(CP(=O)(O)O)CC1 [Example 282] | 80 | n.s. | 0.8 | –
8 | O=C(CCCCc1cc(Cl)c(CN2CSC[C@H]2C(=O)N2CCN(C3CC3)c3ccccc32)cc1Cl)N[C@@H](C(=O)O)[C@@H](O)[C@H](O)[C@H](O)CO [Example 240] | 190 | * (* p < 0.05 vs. vehicle; One-way ANOVA followed by Dunnett's test) | 1.2 | –
